# According to patent US11591325B2, “2-polysubstituted aromatic ring-pyrimidine derivatives, preparation and medical application thereof” (ZHEJIANG UNIVERSITY, priority 2016, dated 2023):
# Chains of the proteins cited; added tags and fusions are not shown.
# UniProt O14757, whole entry: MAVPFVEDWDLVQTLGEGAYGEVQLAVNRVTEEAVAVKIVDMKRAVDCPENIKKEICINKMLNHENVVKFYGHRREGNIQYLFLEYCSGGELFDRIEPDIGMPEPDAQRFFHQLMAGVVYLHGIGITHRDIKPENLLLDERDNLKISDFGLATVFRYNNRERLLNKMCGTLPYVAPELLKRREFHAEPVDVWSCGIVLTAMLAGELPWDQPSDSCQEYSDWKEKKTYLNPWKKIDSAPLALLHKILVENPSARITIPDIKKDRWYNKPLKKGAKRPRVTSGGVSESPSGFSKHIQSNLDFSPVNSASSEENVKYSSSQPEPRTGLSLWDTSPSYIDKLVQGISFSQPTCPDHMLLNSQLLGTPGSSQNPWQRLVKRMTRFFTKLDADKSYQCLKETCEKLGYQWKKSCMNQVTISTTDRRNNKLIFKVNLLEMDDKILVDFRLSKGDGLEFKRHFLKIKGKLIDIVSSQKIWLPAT
# Target: Chk1 protein kinase (Homo sapiens, UniProt O14757)
# Assay: Chk1 enzyme inhibitory activity, ADP-Glo kit
# Assay type: biochemical
# Details: read-out: Chk1 IC50, bound with unit printed in the cell, Table 2 >10 μM or <1 μM
row,IC50,SMILES
1,< 1000 nM,"CNc1nc(Nc2cnc(C#N)c(O[C@@H]3CCCNC3)c2)ncc1C(F)(F)F [Compound 47, (R)—N^4-methyl-5-trifluoromethyl-N^2-(2-cyano-3-(piperidin-3-oxy)pyridin-5-yl)-2,4-diaminopyrimidine]"
2,< 1000 nM,CNc1nc(Nc2cnc(C#N)c(NC3CCNCC3)c2)ncc1C(F)(F)F
3,< 1000 nM,CNc1nc(Nc2cnc(C#N)c(O[C@H]3CCCNC3)c2)ncc1C(F)(F)F
